Consider two molecules from PubChem BioAssay AID652025 (National Center for Advancing Translational Sciences (NCATS), 2013).

The list shows a part of the results, in another mix than the full data. Activity calls are given as the source filed them. Rule as the data show it: active = activation above about 50%; inconclusive = mostly about 30% to 49%; inactive = weaker than that.

The assay can be described thus: qHTS of IL-2 Activators. Also: 0% is about no effect. The following applies: IL-2 activation reporter assay, cell-based qHTS; active compounds read high; in transgenic mouse T cells; stimulated with anti-CD3/CD4/CD28 beads. The source says: The adaptive immune response against any infectious agent begins with the activation of an antigen specific T cell. This relatively rare and inert ("naive") T cell undergoes a massive proliferative expansion and differentiation process to generate sufficient number of potent pathogen-specific effector T cells. The effector T cells fight the infection by making cytokines and helping other cells to become fully armed as well. If any naive T cell has antigen receptors (TCRs) that can be activated by self peptides, then a variety of regulatory mechanisms kick in to prevent this cell from performing to its full potential. These processes collectively constitute the phenomenon of immunological tolerance and their failure leads to autoimmunity. One arm of tolerance involves generation of biochemical negative feedback downstream of the TCR (tuning). This is especially relevant to self antigens present in the body over long periods of time (chronic), which form the bulk of our proteome. […]
4 microL (750 cells/well) of unstimulated transgenic mouse T cells (columns 1-3,5-48) are dispensed into Aurora LoBase, black clear-bottom 1536-well assay plates; column 4 receives an identical concentration of transgenic memory T cells as a non-tolerant control. […] EGFP and DsRed signal are then detected using an Acumen eX3 Explorer fluorescent plate cytometer. […]
(In general: Quantitative high-throughput screening tests each substance at several concentrations.)
Regarding `CCC(=O)N(c1ccccc1)C1(COC)CCN(CCn2nnn(CC)c2=O)CC1`, the activation is inactive: 0.851%.

Turning to `CCC(=O)N(c1ccccc1)C1(COC)CCN(CCc2cccs2)CC1`, the activation is inactive: 1.45%.
